The test concerns the target D(2) dopamine receptor (Rattus norvegicus, UniProt P61169). Description: Binding affinity for rat Dopamine receptor D2.

Chains of the proteins cited; added tags and fusions are not shown.
UniProt P61169, whole entry: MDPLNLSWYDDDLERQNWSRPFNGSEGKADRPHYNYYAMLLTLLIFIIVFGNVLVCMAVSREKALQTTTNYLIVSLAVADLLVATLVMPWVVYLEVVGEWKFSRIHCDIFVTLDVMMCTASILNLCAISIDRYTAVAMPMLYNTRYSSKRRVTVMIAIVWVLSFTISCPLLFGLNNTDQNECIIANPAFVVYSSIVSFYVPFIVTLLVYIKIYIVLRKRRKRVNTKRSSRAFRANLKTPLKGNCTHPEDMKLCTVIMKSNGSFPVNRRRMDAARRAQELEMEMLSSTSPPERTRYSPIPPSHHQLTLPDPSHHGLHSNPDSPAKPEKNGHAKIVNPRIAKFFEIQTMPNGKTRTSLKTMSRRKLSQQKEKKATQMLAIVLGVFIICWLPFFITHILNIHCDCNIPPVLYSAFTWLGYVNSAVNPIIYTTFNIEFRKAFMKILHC

The source of these data is ChEMBL document CHEMBL1135380, “Synthesis and structure-activity relationship of 2-(aminoalkyl)-2,3,3a,8-tetrahydrodibenzo[c,f]isoxazolo[2,3-a]azepine derivatives: a novel series of 5-HT(2A/2C) receptor antagonists. Part 1” (Bioorg Med Chem Lett, 2002).

The structures appear in SMILES notation.

The IC50 is the concentration that inhibits the measured activity by half. Higher therefore signals weaker potency in that assay.

Take `CN1CCN2c3ccccc3Cc3ccccc3C2C1` (stereo unspecified) [MIANSERIN]: the IC50 was 3.55 µM.
